The values below come from paper PMC12513289 (The Journal of Biological Chemistry, 2025).

For orientation: Kd means the concentration at which binding is half-saturated.

This series concerns the molecule itself. As to the kind of experiment: mass photometry; dimer to monomers; enzymes diluted to between 5 and 100 nM; counts in monomer and dimer peaks.

B1: human asparaginyl-tRNA synthetase (AsnRS), wild type, N-terminal 6xHis tag (enzyme, UniProt O43776 1-548, looked up)
chain: MVLAELYVSDREGSDATGDGTKEKPFKTGLKALMTVGKEPFPTIYVDSQKENERWNVISKSQLKNIKKMWHREQMKSESREKKEAEDSLRREKNLEEAKKITIKNDPSLPEPKCVKIGALEGYRGQRVKVFGWVHRLRRQGKNLMFLVLRDGTGYLQCVLADELCQCYNGVLLSTESSVAVYGMLNLTPKGKQAPGGHELSCDFWELIGLAPAGGADNLINEESDVDVQLNNRHMMIRGENMSKILKARSMVTRCFRDHFFDRGYYEVTPPTLVQTQVEGGATLFKLDYFGEEAFLTQSSQLYLETCLPALGDVFCIAQSYRAEQSRTRRHLAEYTHVEAECPFLTFDDLLNRLEDLVCDVVDRILKSPAGSIVHELNPNFQPPKRPFKRMNYSDAIVWLKEHDVKKEDGTFYEFGEDIPEAPERLMTDTINEPILLCRFPVEIKSFYMQRCPEDSRLTESVDVLMPNVGEIVGGSMRIFDSEEILAGYKREGIDPTPYYWYTDQRKYGTCPHGGYGLGLERFLTWILNRYHIRDVCLYPRFVQRCTP
notes: also called AsnRS^WT; His-WT; source: E. coli BL21(DE3) or BL21 ClearColi, purified (Ni-NTA, heparin, SEC); not shown: His6, N-terminal, kept
Protein B1 registered a Kd of 3 ± 1.2 nM.
